Assay results taken from patent US20170304388A1, “NEW INDICATION OF CARDIOVASCULAR DRUGS FOR PREPARATION OF CANCER INHIBITION PHARMACEUTICAL COMPOSITION” (LAUNX BIOMEDICAL CO., LTD., priority 2014, published 2017).

Test system: cancer cell lines
Assay: Growth inhibitory effects on the panel of cancer cell lines

For `C[C@@H](O)[C@H]1C(=O)N2C(C(=O)OCOC(=O)C(C)(C)C)=C(SC3CN(C4=NCCS4)C3)[C@H](C)[C@H]12` [Tebipenem pivoxil (L-084), Tebipenem pivoxil], the “Numbers of inhibitory effect on cancer cell line” value was 0 and the “inhibition effect on different cancer cell lines (in words)” value was “significant inhibition effect”.
